Sequences and labels used below:
B1: USP45-Flag [not stated] / MYC-HA [not stated] (parent complex)
chain 1: MRVKDPTKALPEKAKRSKRPTVPHDEDSSDDIAVGLTCQHVSHAISVNHVKRAIAENLWSVCSECLKERRFYDGQLVLTSDIWLCLKCGFQGCGKNSESQHSLKHFKSSRTEPHCIIINLSTWIIWCYECDEKLSTHCNKKVLAQIVDFLQKHASKTQTSAFSRIMKLCEEKCETDEIQKGGKCRNLSVRGITNLGNTCFFNAVMQNLAQTYTLTDLMNEIKESSTKLKIFPSSDSQLDPLVVELSRPGPLTSALFLFLHSMKETEKGPLSPKVLFNQLCQKAPRFKDFQQQDSQELLHYLLDAVRTEETKRIQASILKAFNNPTTKTADDETRKKVKAYGKEGVKMNFIDRIFIGELTSTVMCEECANISTVKDPFIDISLPIIEERVSKPLLWGRMNKYRSLRETDHDRYSGNVTIENIHQPRAAKKHSSSKDKSQLIHDRKCIRKLSSGETVTYQKNENLEMNGDSLMFASLMNSESRLNESPTDDSEKEASHSESNVDADSEPSESESASKQTGLFRSSSGSGVQPDGPLYPLSAGKLLYTKETDSGDKEMAEAISELRLSSTVTGDQDFDRENQPLNISNNLCFLEGKHLRSYSPQNAFQTLSQSYITTSKECSIQSCLYQFTSMELLMGNNKLLCENCTKNKQKYQEETSFAEKKVEGVYTNARKQLLISAVPAVLILHLKRFHQAGLSLRKVNRHVDFPLMLDLAPFCSATCKNASVGDKVLYGLYGIVEHSGSMREGHYTAYVKVRTPSRKLSEHNTKKKNVPGLKAADNESAGQWVHVSDTYLQVVPESRALSAQAYLLFYERVL
chain 2: MDFFRVVENQQPPATMPLNVSFTNRNYDLDYDSVQPYFYCDEEENFYQQQQQSELQPPAPSEDIWKKFELLPTPPLSPSRRSGLCSPSYVAVTPFSLRGDNDGGGGSFSTADQLEMVTELLGGDMVNQSFICDPDDETFIKNIIIQDCMWSGFSAAAKLVSEKLASYQAARKDSGSPNPARGHSVCSTSSLYLQDLSAAASECIDPSVVFPYPLNDSSSPKSCASQDSSAFSPSSDSLLSSTESSPQGSPEPLVLHEETPPTTSSDSEEEQEDEEEIDVVSVEKRQAPGKRSESGSPSAGGHSKPPHSPLVLKRCHVSTHQHNYAAPPSTRKDYPAAKRVKLDSVRVLRQISNNRKCTSPRSSDTEENVKRRTHNVLERQRRNELKRSFFALRDQIPELENNEKAPKVVILKKATAYILSVQAEEQKLISEEDLLRKRREQLKHKLEQLRNSCA

The experiment covers variants of B1. As to the kind of experiment: co-IP (IP: anti-Flag, IB: anti-HA), band intensity printed under the blot; HEK293T cells transfected with USP45-Flag (WT or C199A) and MYC-HA; parent: 100.
On to chain 1 C199A, for which the percent of parent was 79.

These data come from PMC9913288 (2023).
